From PubChem BioAssay AID422 (Emory University Molecular Libraries Screening Center, 2006) come the findings set out here.

Chains of the proteins cited; added tags and fusions are not shown.
UniProt P61981, whole entry: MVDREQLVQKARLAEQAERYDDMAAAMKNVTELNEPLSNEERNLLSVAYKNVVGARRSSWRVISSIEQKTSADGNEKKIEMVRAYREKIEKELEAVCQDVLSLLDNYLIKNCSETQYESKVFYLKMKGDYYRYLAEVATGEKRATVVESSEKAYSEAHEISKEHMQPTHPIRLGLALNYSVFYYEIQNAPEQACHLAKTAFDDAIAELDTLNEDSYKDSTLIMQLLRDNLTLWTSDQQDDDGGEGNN

Where “and” joins values, the source holds several entries; their conditions need not be identical. Identical values can stand only once. Only a part is listed here, and it is no random draw. Calls of active or inactive are those of the source. Rule as the data show it: active = inhibition above about 30%; inactive = the rest.

For the assay, the target named is 14-3-3 protein gamma (Homo sapiens) (UniProt P61981). Description: 14-3-3 gamma/Raf peptide interaction modulators – biochemical, fluorescence polarization, primary screen (AID 422).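 Also: 0% = protein plus tracer without compound and 100% = blank with tracer alone.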 As to conditions: FP, 14-3-3gamma / TMR-pS259-Raf peptide binding; at 40 µM; hits give high values. (In general: Polarisation of emitted light reports the rotation of a fluorescent probe.)
On to `CP(=O)(Nc1ccc(Cl)cc1)Oc1ccc(F)cc1` (stereo not drawn), for which the inhibition – broadly, the relative decrease from the control value, in per cent – is inactive: 3.92%.
Take `COc1ccccc1OP(C)(=O)Nc1c(C)n(C)n(-c2ccccc2)c1=O` (stereo not drawn): the inhibition was inactive: -0.41%.
The same measure for `CP(=O)(Oc1ccccc1)N1CCOC1=O` (stereo not drawn): inactive: -16.5%; for `CCN(CC)CC(O)COC(=O)C(O)(c1ccccc1)C1CCCCC1` (stereo not drawn): inactive: 3.9%; for `N#[O+].[C-]#N.[C-]#N.[C-]#N.[C-]#N.[C-]#N.[Fe+2].[Na+].[Na+]`: inactive: 2.81%.
On to `Cc1nc2ccc3ccccc3c2o1.O=[N+]([O-])c1cc([N+](=O)[O-])c(O)c([N+](=O)[O-])c1`, for which the inhibition is inactive: -1.56%.
As for `Cn1cc([N+](=O)[O-])nc1[N+](=O)[O-]`, the inhibition is inactive: -1.83%.
For the compound `COc1ccccc1OP(C)(=O)Nc1ccc(C)c(C)c1` (stereo not drawn), the inhibition is inactive: 1.85%.
For `CP(=O)(Nc1ccccn1)Oc1ccccc1` (stereo not drawn), the inhibition was inactive: 5.61% and inactive: 0.9%.
With `O=[N+]([O-])c1cc([N+](=O)[O-])c(O)c([N+](=O)[O-])n1`, the inhibition is inactive: -5.86%.
Turning to `CP(=O)(Nc1cccc(C(F)(F)F)c1)Oc1ccc(Cl)cc1` (stereo not drawn), the inhibition is inactive: 4.23%.
Take `CC(CNC(=O)C(C)([N+](=O)[O-])[N+](=O)[O-])([N+](=O)[O-])[N+](=O)[O-]`: the inhibition is inactive: 0.7%.
The value for `CP(=O)(Nc1ccccc1F)Oc1ccccc1` (stereo not drawn) was inactive: -7.05%; that for `COc1ccc(NP(C)(=O)Oc2cc(C)cc(C)c2)cc1` (stereo not drawn) was inactive: 0.33%.
As for `CP(=O)(Nc1ccccc1)Oc1ccc(F)cc1` (stereo not drawn), the inhibition was inactive: -2.28%.
The value for `COc1cc2c(cc1NP(C)(=O)Oc1ccccc1)oc1ccccc12` (stereo not drawn) was inactive: -13.5%; that for `Cc1ccc(Cl)c(OP(C)(=O)Nc2cccnc2)c1` (stereo not drawn) was inactive: 6.68%.
Consider `CN(C)CCOC(=O)C(O)(c1ccccc1)C1CCCCC1` (stereo not drawn), for which the inhibition is inactive: -6.67%.
In the case of `Cc1ccccc1NP(C)(=O)Nc1ccccc1C`, the inhibition was inactive: -3.16%.
On to `Cc1cc(C)cc(OP(C)(=O)Nc2cccc(Cl)c2C)c1` (stereo not drawn), for which the inhibition was inactive: -3.42%.
As for `CP(=O)(Nc1ccc2c(c1)OCCO2)Oc1ccccc1` (stereo not drawn), the inhibition is inactive: 9.28%.
`CCOP(C)(=S)SCC(=O)NC(C)(CC)C(=O)O` (stereo not drawn): the inhibition is inactive: 5.93%.
The same measure for `Cc1ccc(Cl)c(OP(C)(=O)Nc2ccc(F)cc2)c1` (stereo not drawn): inactive: -5.66%; for `Nc1nc(N)c([N+](=O)[O-])cc1[N+](=O)[O-]`: inactive: -3.2%; for `Cc1nc2ccc3ccccc3c2s1.O=[N+]([O-])c1cc([N+](=O)[O-])c(O)c([N+](=O)[O-])c1`: inactive: -5.22%.
`COc1ccc(NP(C)(=O)Oc2ccc(Cl)cc2)cc1` (stereo not drawn): the inhibition is inactive: 6.83%.
With `O=c1[nH]nc([N+](=O)[O-])[nH]1`, the inhibition is inactive: -175%.
The same measure for `CCCOc1ccc(NP(C)(=O)Oc2ccc(Cl)cc2)cc1` (stereo not drawn): inactive: -1.95%; for `Cc1c([N+](=O)[O-])no[n+]1[O-]`: inactive: 2.51%.
Take `Cc1ccc(C)c(NP(C)(=O)Oc2ccccc2)c1` (stereo not drawn): the inhibition was inactive: -4.71%.
For the compound `Cc1cc(C)cc(OP(C)(=O)Nc2ccccn2)c1` (stereo not drawn), the inhibition was inactive: 3.92%.
With `CCOC(=O)c1ccc(NP(C)(=O)Oc2cc(C)cc(C)c2)cc1` (stereo not drawn), the inhibition was inactive: 4.23%.
Regarding `COc1ccccc1OP(C)(=O)Nc1ccc(C)cc1` (stereo not drawn), the inhibition is inactive: 0.94%.
On to `Cc1ccc(NP(C)(=O)Oc2ccccc2)c(C)c1` (stereo not drawn), for which the inhibition was inactive: 4.51%.
On to `O=C(O)C1(O)c2ccccc2-c2ccccc21`, for which the inhibition was inactive: -1.46%.
Consider `CP(=S)(Nn1cnnc1)Oc1ccccc1` (stereo not drawn), for which the inhibition is inactive: -1.87%.
For `CCOP(C)(=S)SCC(=O)NC(C)C(=O)O` (stereo not drawn), the inhibition is inactive: -7.11%.
For `O=C(OCC#CCN1CCCCC1)C(O)(c1ccccc1)c1ccccc1`, the inhibition was inactive: -4.84%.
